The species entered for experiment [1] is Homo sapiens. The experiment can be described thus: Selectivity ratio of IC50 for CDK2/Cyclin A2 (unknown origin) to IC50 for CDK4/Cyclin D3 (unknown origin).
For experiment [2], the species on record is Homo sapiens. The experiment can be described thus: Selectivity ratio of IC50 for CDK2/Cyclin A2 (unknown origin) to IC50 for CDK6/Cyclin D3 (unknown origin).

We go through seven compounds from ChEMBL document CHEMBL4270627, “Synthesis and SAR of 4,5-dihydro-1H-pyrazolo[4,3-h]quinazoline derivatives as potent and selective CDK4/6 inhibitors” (Eur J Med Chem, 2018).

For `CN1CCN(c2ccc(Nc3ncc4c(n3)-c3c(c(C(N)=O)nn3C)CC4)cc2)CC1`, the Ratio IC50 was found to be 0.33 in the experiment filed under Homo sapiens [1] and 0.1 in the experiment listed under Homo sapiens [2].
Regarding `CN(C)c1ccc(Nc2ncc3c(n2)-c2c(c(C(N)=O)nn2C)CC3)nc1`, the results for the Ratio IC50 in the experiment filed under Homo sapiens [1] and in the experiment filed under Homo sapiens [2] were 2 and 2.5, respectively.
With `Cn1nc(C(N)=O)c2c1-c1nc(Nc3ccc(N4CCNCC4)cc3)ncc1CC2`, the Ratio IC50 in the experiment listed under Homo sapiens [1] stood at 1; in the experiment filed under Homo sapiens [2], 0.8.
For `Cn1nc(C(N)=O)c2c1-c1nc(Nc3ccc(N4CCOCC4)cn3)ncc1CC2`, in that order: 33.3 and 25.2.
Consider `CN1CCN(c2ccc(Nc3ncc4c(n3)-c3c(c(C(N)=O)nn3C)CC4)nc2)CC1`, for which the Ratio IC50 was 70 in the experiment filed under Homo sapiens [1] and 28.1 in the experiment listed under Homo sapiens [2].
Consider `Cn1nc(C(N)=O)c2c1-c1nc(Nc3ccc(N4CCNCC4)cn3)ncc1CC2`, for which the results for the Ratio IC50 in the experiment listed under Homo sapiens [1] and in the experiment filed under Homo sapiens [2] were 28.3 and 23.6, respectively.
As for `CNC(=O)c1nn(C)c2c1C(C)(C)Cc1cnc(Nc3ccccc3)nc1-2`, the Ratio IC50 is 0.56 in the experiment filed under Homo sapiens [1] and 0.03 in the experiment filed under Homo sapiens [2].
